Test: In vivo safety in xenograft-bearing mice (mortality, body weight, organ histology)
Details: 5 mg/kg IP

In the case of `CCc1cc(N(CCCl)CCCl)ccc1B(O)O`, the “treatment-related mortality or adverse effects” value (8 weeks) is reported as “no treatment-related mortality or adverse effects occurred”, the “histological examination of major organs (liver, kidneys, spleen, lungs, heart)” value (8 weeks, H&E staining) is reported as “no structural abnormalities or pathological changes” and the body weights (week 1 to week 8) is reported as “increased steadily”.

From paper PMC12703749, “H2O2–Responsive Anticancer Prodrug: Synthesis, Precision Deuteration in Search of In Vivo Metabolites, and Activation Pathway” (Journal of Medicinal Chemistry, 2025)
